The assay addresses Eya3(ED) (Mus musculus (Mouse), UniProt P97480). The assay can be described thus: p-nitrophenylphosphate (pNPP) assay, catalytic domain of Eya3. The conditions noted are these: pNPP substrate. It counts as biochemical. The text has this:
The catalytic domain of mouse Eya3 (“ED”, comprising residues 223-510 of Eya3) was purified as described by Rayapureddi, J. P. et al. (FEBS Lett 580, 3853-3859 (2006), incorporated by reference in its entirety). For full-length Eya3 (“hEYA3”), human Eya3 isoform 2 (representing the major species identified in human cell lines by mass spectrometry, expressed as residues 127-573 of NM_001990, isoform 1) was sub-cloned into pDEST565 to express a poly-histidine-Glutathione-S-transferase (His-GST) tagged fusion protein with a TVMV protease site. The protein was purified by glutathione-S-transferase affinity chromatography followed by TVMV cleavage, Ni-NTA chromatography, and finally size exclusion chromatography.
An inhibitory assay was conducted using the previously described p-nitrophenylphosphate assay (Rayapureddi, J. P. et al. Nature 426, 295-298 (2003)). Briefly, ED was incubated in a reaction mixture containing 20 mM MES pH 6, 2 mM MgCl2, 125 μM inhibitor, 3.4 mM para-nitrophenol phosphate (pNPP) and 0.01 μg/μL enzyme. The amount of 4-nitrophenol (pNP) produced was monitored at […] on a BioTek EL808 plate reader. […]
The compounds were then tested using full-length human recombinant, purified EYA3 and pNPP as a substrate. […] IC50 values were then calculated directly from regression curves using PRISM software. […]

The chains behind the UniProt entries cited, without tags or fusion partners. Residues count along the entry.
UniProt P97480, 223-510: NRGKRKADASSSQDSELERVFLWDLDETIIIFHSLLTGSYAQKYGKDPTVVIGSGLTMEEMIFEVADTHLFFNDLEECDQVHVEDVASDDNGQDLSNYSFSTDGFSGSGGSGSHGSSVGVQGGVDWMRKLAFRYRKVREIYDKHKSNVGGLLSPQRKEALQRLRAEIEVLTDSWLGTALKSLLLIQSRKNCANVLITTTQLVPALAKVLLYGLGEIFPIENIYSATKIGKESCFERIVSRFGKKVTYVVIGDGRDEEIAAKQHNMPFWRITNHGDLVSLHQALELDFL

Take `CCCCc1oc2ccccc2c1C(=O)c1ccc(O)cc1` [Compound 1b]: the IC50 worked out at 10.1 µM.

Source of the values: patent publication US9725430B2, “Use of small molecule inhibitors targeting EYA tyrosine phosphatase” (Children's Hospital Medical Center, priority 2013, dated 2017).
